In patent publication US8948863B2, “Photokinetic ocular drug delivery methods and apparatus” (priority 2009, dated 2015):

How the values were obtained:
[1] = Histological examination of Franz cell mounted sclera after PODD exposure; set-up: species or system ovine; conditions: insulin formulation, 24 hour 405 nm PODD exposure
Experimental: Sclera samples were taken and placed in formalin as follows: Normal control sclera with no exposure to drug or light, Franz cell 60 minute control drug only exposure and Franz cell 60 minute exposure to both drug and 350 nm LED light. Fixed slides were evaluated for structural integrity and gross appearance by a pathologist blinded as to the origin of the sample tissue.
Normal control sclera with no exposure to drug or light, Franz cell 60 minute control drug only exposure and Franz cell 60 minute exposure to both drug and 350 nm LED light were taken and placed in formalin. Fixed slides were evaluated for structural integrity and gross appearance by a pathologist masked as to the origin of the sample tissue.

[2] = Franz cell sclera tissue permeation, PODD (pulsed LED light) vs passive controls; conditions: for flux rate vs. controls: 24 hours
[3] = Rabbit ocular drug delivery model: human insulin concentration in eye fluids and tissues by ELISA; conditions: 60 minute exposure
[4] = Passive Delivery eye (no light exposure)

With insulin the “histological examination, PODD exposure compared to passive control and normal sclera” value [1] was “no differences between the samples”, the “structural integrity of the sclera” value [1] was “grossly intact and undamaged” and the “flux rate vs. controls” value ([2]; 405 nm PODD group, 24 CPS, 200 IUs/mL) was 2 times. The “flux rate vs. controls” value ([2]; 450 nm PODD group, 24 CPS, 200 IUs/mL) was 7 times, the “levels of insulin recovered” value ([2]; both light groups (405 and 450 nm), 24 hour time point, p<0.05) was “significant” and the “insulin permeation through the scleral tissue, PODD cells vs. controls” value ([2]; both wavelengths (405 nm and 450 nm), 24 CPS, 200 IUs/mL) was “improvement”. For the same substance, the “Insulin, Aqueous Humor” value ([3]; Passive Contralateral eye) was 2 μU/mL, the “Insulin, Cornea” value ([3]; Passive Contralateral eye) was 22 μU/gram Tissue/mg Protein and the “Insulin, Neural Retina” value ([3]; Passive Contralateral eye) was 0.98 μU/gram Tissue/mg Protein. For the same substance, the “Insulin, RPE Coroid” value ([3]; Passive Contralateral eye) was 0.65 μU/gram Tissue/mg Protein, the “Insulin, Sclera” value ([3]; Passive Contralateral eye) was 56 μU/gram Tissue/mg Protein and the “Insulin, Vitreous Humor” value ([3]; Passive Contralateral eye) was 2 μU/mL. For the same substance, the “Insulin, Aqueous Humor” value [3, 4] was 2 μU/mL, the “Insulin, Cornea” value [3, 4] was 200 μU/gram Tissue/mg Protein and the “Insulin, Neural Retina” value [3, 4] was 1.3 μU/gram Tissue/mg Protein. For the same substance, the “Insulin, RPE Coroid” value [3, 4] was 0.89 μU/gram Tissue/mg Protein, the “Insulin, Sclera” value [3, 4] was 200 μU/gram Tissue/mg Protein and the “Insulin, Vitreous Humor” value [3, 4] was 4 μU/mL. The “Insulin, Aqueous Humor” value ([3]; Photokinetic Contralateral eye) was 40 μU/mL, the “Insulin, Cornea” value ([3]; Photokinetic Contralateral eye) was 22 μU/gram Tissue/mg Protein and the “Insulin, Neural Retina” value ([3]; Photokinetic Contralateral eye) was 2.5 μU/gram Tissue/mg Protein. For the same substance, the “Insulin, RPE Coroid” value ([3]; Photokinetic Contralateral eye) was 3.75 μU/gram Tissue/mg Protein, the “Insulin, Sclera” value ([3]; Photokinetic Contralateral eye) was 98 μU/gram Tissue/mg Protein and the “Insulin, Vitreous Humor” value ([3]; Photokinetic Contralateral eye) was 6 μU/mL. For the same substance, the “Insulin, Aqueous Humor” value ([3]; Photokinetic exposure eye) was 114 μU/mL, the “Insulin, Cornea” value ([3]; Photokinetic exposure eye) was 1500 μU/gram Tissue/mg Protein and the “Insulin, Neural Retina” value ([3]; Photokinetic exposure eye) was 28 μU/gram Tissue/mg Protein. The “Insulin, RPE Coroid” value ([3]; Photokinetic exposure eye) was 31 μU/gram Tissue/mg Protein, the “Insulin, Sclera” value ([3]; Photokinetic exposure eye) was 1498 μU/gram Tissue/mg Protein and the “Insulin, Vitreous Humor” value ([3]; Photokinetic exposure eye) was 118 μU/mL.
